Bioassay records deposited in PubChem BioAssay by National Center for Advancing Translational Sciences (NCATS).
An excerpt weighted towards active compounds, which were near 13% of everything screened.
miR-21 reporter – raises the signal of a miR-21 reporter | HeLa miR-21 FLuc reporter, luciferase, 48 h | Potency, µM (highest dose often 38.3 µM), for inactives: at the highest dose reporter change, positive = more light | 340,000 tested, under 10 active | AID 2288; active = well fitted rising curve with a large enough effect; inconclusive = small, poorly fitted or top-dose-only effect; inactive = no such curve, though single readings can be large or run the other way;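 also: % of control where 0% means no effect; miR-21 action dims this reporter so a rising signal means less miR-21 action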
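HeLa cells stably expressing CMV-driven firefly luciferase with a downstream miR-21 binding sequence, endogenously expressing miR-21, were treated with titrations (up to about 40uM final) for 48 hours at 37 degree Celsius. Luciferase luminescence was read after lysis.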
Lamin A splicing – modulators of lamin A splicing; HeLa LMNA splicing GFP/RFP minigene ratio, 48 h; Potency, µM (titrated, usually from 46.1 µM), for inactives: at the top dose ratio change, negative = inhibition, hits mostly inhibitors; hit rate 0.01% among 200,000; AID 1487; active means well fitted inhibition curve with a large enough effect in the signal ratio, with a control signal flat, not every such curve was filed as active; inconclusive means small, poorly fitted or top-dose-only effect, or effect the other way, or a change in a side signal; the % refers to the signal ratio; further: potency means the concentration at half of the fitted maximal effect; on the % scale 0 is the no-effect control and ±100 the full control effect
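Read-out is the ratio of GFP to DsRed2 object intensity, acquired by 488 nm laser-scanning cytometry on HeLa lamin A-EGFP minigene reporter cells. Compound incubation 48 hrs at 37 °C in Opti-MEM with 2% FBS; DMSO 0.5% final.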
JMJD2E inh – inhibitors of human JMJD2E histone demethylase | Potency, µM (series often up to 57.1 µM), without a hit: at the highest dose activity change, negative = inhibition, most hits filed as inhibitors | hit rate 1.6% among 230,000 | JMJD2E catalytic domain, FDH-coupled NADH fluorescence (FDH is formaldehyde dehydrogenase) | B2RXH2; active means well fitted inhibition curve with a large enough effect, not every such curve was filed as active; inconclusive means small, poorly fitted or top-dose-only effect, or another doubt; inactive means no such curve, though single readings can be large or run the other way;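 further: potency means the concentration at half of the fitted maximal effect; 0% = wells with enzyme and -100% = buffer wells without enzyme; nearly all actives have a fitted effect of over 50% in size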
Sfp PPTase inh – qHTS Assay for Inhibitors of Bacillus subtilis Sfp phosphopantetheinyl transferase (PPTase); actives 3.5% (n = 310,000); AID 1490, 2009; Biochemical Sfp PPTase activity, qHTS; Potency, µM, for inactives: max response, negative = inhibition, usual class: inhibitors; 4'-phosphopantetheinyl transferase ffp (Bacillus subtilis), Q9F4F7; active means well fitted inhibition curve with a large enough effect; inconclusive means small, poorly fitted or top-dose-only effect, or another doubt; inactive means no such curve, though single readings can be large or run the other way;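 further: the enzyme is Sfp with the accession as filed and its product quenches rhodamine fluorescence; potency means the concentration at half of the fitted maximal effect; 0% = enzyme reaction without inhibitor and -100% = no enzyme wells; top concentration of the series not given in the record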
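Buffer: 50 mM Hepes-Na pH 7.6, 10 mM MgCl2, 0.01% Nonidet P-40, 0.01% BSA. Enzyme 15 nM, pre-exposed to compound 15 min; substrates then added and fluorescence change tracked over 30 min.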
ALDH1A1 block – ALDH1A1 (human) enzyme inhibition | P00352 | Purified ALDH1A1, NADH fluorescence, propionaldehyde substrate | Potency, µM (titrated, usually from 75.3 µM), for inactives: at the top dose activity, negative = inhibition, usual class: inhibitors | hit rate 7.3% among 220,000; active means well fitted inhibition curve with a large enough effect, not every such curve was filed as active; inconclusive means small, poorly fitted or top-dose-only effect, or another doubt; inactive means no such curve, though single readings can be large or run the other way;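 further: potency means the concentration at half of the fitted maximal effect; plate controls were no enzyme wells and a reference inhibitor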
G9a inh – inhibitors of human histone lysine methyltransferase G9a | Q96KQ7 | G9a H3K9 monomethylation, AlphaScreen, 2 h | Potency, µM (series often up to 102 µM), without a hit: at the highest dose activity, negative = inhibition, most hits filed as inhibitors | hit rate 8.8% among 350,000 | AID 504332; further: potency means the concentration at half of the fitted maximal effect; on the % scale 0 is the no-effect control and ±100 the full control effect; nearly all actives have a fitted effect of over 75% in size
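Compounds were preincubated with 20 nM G9a for 15 min, after which biotinylated H3K9 peptide (500 nM) and SAM (20 uM) started a 2 h room-temperature reaction. Monomethylated product was quantified by antibody-based AlphaScreen chemiluminescence.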
* hit, by the source's call; ? = inconclusive; nt = no result given; [ ] = dose if it differs, or a comment. Unless noted, the call rests on the fitted dose curve; in most records, active means well fitted curve in the direction sought with a large enough effect; inconclusive means small, poorly fitted or top-dose-only effect, or another doubt; inactive means no such curve, though single readings can be large; an effect the other way counts as inactive or inconclusive.

[1] O=C(NCc1ccc2[nH]c3c(c2c1)CCCC3)c1ccc(S(=O)(=O)N2CCCCC2)cc1
[2] Cc1cc(N2CCOCC2)nc2ccc(Cl)cc12
[3] O=C(NC1CCCCCC1)c1ccc2c(c1)sc1nc(-c3ccc(F)cc3)cn12
[4] N#Cc1ccc(-c2cccs2)nc1SCc1ccc(Cl)cc1Cl
[5] CC(=O)NC(CC(=O)Nc1cccc(S(=O)(=O)N2CCOCC2)c1)c1ccccc1 (stereo not given)
[6] Nc1cc(=O)[nH]c(SCC(=O)Nc2ccc(S(=O)(=O)N3CCCCC3)cc2)n1
[7] O=C(CSc1nnc(-c2ccc(F)cc2)o1)Nc1ccc(S(=O)(=O)N2CCCCCC2)cc1
[8] O=C(O)CSCC(=O)Nc1ccc(S(=O)(=O)N2CCCCC2)cc1
Compound | 1 | 2 | 3 | 4 | 5 | 6 | 7 | 8
miR-21 reporter | 1% | -46% | -6% | -16% | nt | 6% | 0% | -3%
Lamin A splicing | ? | nt | -2%[46 µM] | nt | nt | 5%[46 µM] | -10% | ?
JMJD2E inh | -2% | nt | nt | nt | nt | 4% | 5% | 8%
Sfp PPTase inh | 8% | 4% | nt | nt | nt | 8% | 16% | 3%
ALDH1A1 block | ? | nt | nt | nt | nt | 19µM* | 4% | -4%
G9a inh | 71µM* | ? | -19%[59 µM] | 125%[59 µM] | 6% | -9% | -1% | 10%[2.33 µM]

[9] CC(SCC(=O)Nc1ccc(S(=O)(=O)N2CCCCC2)cc1)C(=O)O (stereo not given)
[10] CC(=O)NC(CC(=O)Nc1ccc(S(=O)(=O)N2CCCC2)cc1)c1ccccc1 (stereo not given)
[11] O=C(CSc1nnc(-c2ccc(F)cc2)o1)Nc1ccc(S(=O)(=O)N2CCCC2)cc1
[12] COc1cccc(-c2cn3ncsc3n2)c1
[13] CN(CC(=O)Nc1ccc(OC(F)(F)F)cc1)C(=O)/C=C/c1cc2c(cc1[N+](=O)[O-])OCO2
[14] Cc1c(C(=O)N(C)C(C)c2ccccn2)oc2c(F)cccc12 (stereo not given)
[15] Cc1csc(SCC(=O)Nc2ccc(S(=O)(=O)N3CCCC3)cc2)n1
[16] COc1ccccc1N=c1oc2c(OC)cccc2cc1C(=O)NCc1ccco1
Compound | 9 | 10 | 11 | 12 | 13 | 14 | 15 | 16
miR-21 reporter | -1% | 0% | 0% | -32% | nt | -57% | -9% | -26%
Lamin A splicing | 3% | 7% | 7% | nt | nt | nt | ? | 4%
JMJD2E inh | 0% | 2% | 7% | nt | nt | nt | -1% | -7%
Sfp PPTase inh | 5% | 7% | -9% | nt | nt | 0% | -4% | -17%
ALDH1A1 block | 28µM* | ? | 16µM* | nt | nt | nt | 14µM* | ?
G9a inh | 14% | 28µM* | 6%[59 µM] | -25%[59 µM] | -14%[12.7 µM] | nt | 0% | ?

[17] COc1cccc2cc(C(=O)Nc3ccc(F)cc3)c(=Nc3ccc(C(=O)O)cc3)oc12
[18] COc1ccc(N=c2oc3c(OC)cccc3cc2C(=O)NCc2ccco2)cc1OC
[19] Cc1ccc2[nH]c(CSc3nnc(COc4ccccc4C)n3C)cc(=O)c2c1
[20] O=P(c1ccccc1)(c1ccccc1)c1cc(S(=O)(=O)O)ccc1O
[21] O=P(O)(c1ccccc1)c1ccccc1O
[22] CCOC(=O)c1ccc(NC(=O)CN2CCN(C(=O)C3CCCO3)CC2)cc1 (stereo not given)
[23] O=C(OCC(=O)N(Cc1ccccc1)Cc1ccccc1)c1ccccc1NCCO
[24] COc1ccc2c(c1)C(c1ccc(Cl)cc1)NC(=O)C2 (stereo not given)
Compound | 17 | 18 | 19 | 20 | 21 | 22 | 23 | 24
miR-21 reporter | -21% | 7% | 6% | -3% | 0% | 0% | nt | nt
Lamin A splicing | -5%[46 µM] | -1% | ? | nt | -12% | nt | nt | nt
JMJD2E inh | 1% | -9% | nt | nt | 3% | nt | nt | nt
Sfp PPTase inh | -1% | ? | nt | -12% | 8% | 13% | nt | nt
ALDH1A1 block | 4% | 0.35µM* | nt | nt | 3% | nt | nt | nt
G9a inh | 35µM* | ? | 11%[59 µM] | 35µM* | 10%[59 µM] | 4% | 40µM* | -34%[2.33 µM]

[25] CN(C)c1ccc(N=Nc2cccc3ccoc23)cc1
[26] CN(C)c1ccc(N=Nc2cccc(F)c2)cc1
[27] CN(C)c1ccc(N=Nc2ccc(S(N)(=O)=O)cc2)cc1
[28] COc1cccc(NC(=O)Cn2c(CCC(=O)O)ccc2-c2ccc(Cl)cc2)c1
[29] Cc1ccc(NC(=O)Cn2c(CCC(=O)O)ccc2-c2cccs2)cc1Cl
[30] O=C(O)CCc1ccc(-c2cccs2)n1CCC(=O)O
[31] O=C(O)CCc1ccc(-c2cccs2)n1CCc1ccccc1
[32] COc1cccc(NC(=O)Cn2c(CCC(=O)O)ccc2-c2ccccc2)c1
Compound | 25 | 26 | 27 | 28 | 29 | 30 | 31 | 32
miR-21 reporter | -74% | -72% | -71% | -4% | 0% | 1% | -13% | -5%
Lamin A splicing | nt | nt | nt | ? | 11%[46 µM] | -8% | nt | nt
JMJD2E inh | -8% | nt | nt | 28µM* | ? | ? | ? | ?
Sfp PPTase inh | 45µM* | -10% | -7% | -6% | 40µM* | 7.9µM* | 20µM* | 7%
ALDH1A1 block | 8%[13.5 µM] | nt | nt | 25µM* | ? | ? | ? | -6%
G9a inh | 6.3µM* | 10µM* | ? | nt | 45µM* | 20µM* | nt | -37%

[33] COc1ccc(Cc2nc3ccccc3n2Cc2ccccc2F)cc1
[34] Cn1c(=O)[nH]c2cc(-c3noc(-c4ccc(F)cc4)n3)ccc21
[35] CC(=O)Nc1nc2ccc(C(=O)NCCOC(=O)C3CCCCC3)cc2s1
[36] Nc1nc2ccc(C(=O)NCCOC(=O)C3CCCCC3)cc2s1
[37] O=[N+]([O-])c1ccccc1S(=O)(=O)Nc1cccc(-c2ccc(N3CCCC3)nn2)c1
[38] COc1ccc(OC)c(S(=O)(=O)Nc2cccc(-c3ccc(N4CCCCC4)nn3)c2)c1
[39] O=[N+]([O-])c1ccc(Cl)c(S(=O)(=O)Nc2ccc(-c3ccc(N4CCCC4)nn3)cc2)c1
[40] O=[N+]([O-])c1ccc(Cl)c(S(=O)(=O)Nc2cccc(-c3ccc(N4CCCC4)nn3)c2)c1
Compound | 33 | 34 | 35 | 36 | 37 | 38 | 39 | 40
miR-21 reporter | 14% | -59% | -7% | -3% | nt | -34% | nt | nt
Lamin A splicing | nt | 7%[46 µM] | -2%[46 µM] | 5%[46 µM] | nt | 12%[46 µM] | nt | nt
JMJD2E inh | nt | nt | -1% | -10% | nt | nt | nt | nt
Sfp PPTase inh | nt | nt | 12% | -4% | nt | nt | nt | nt
ALDH1A1 block | nt | nt | 0% | 10µM* | nt | nt | nt | nt
G9a inh | 7%[59 µM] | 20%[59 µM] | -32% | ? | -5%[2.33 µM] | 3.5µM* | 50µM* | 40µM*

[41] NC(=O)C(=O)N/N=C/c1c2ccccc2cc2ccccc12
[42] Cc1nn(CC(=O)NC2CCC(C)CC2)c(C)c1[N+](=O)[O-] (stereo not given)
[43] CCCC(=O)Nc1ccc2nc(SCc3ccc(C)cc3)sc2c1
[44] O=[N+]([O-])c1ccc(COc2ccc(Br)cc2CN2CCOCC2)cc1
[45] Cc1ccc([C@@H]2CC=C(C(=O)O)CN2S(=O)(=O)c2ccc(C)cc2)cc1
[46] COc1cccc(CNC(=O)c2cccc(N3CCCS3(=O)=O)c2)c1
[47] Cc1cc(C=NCCCO)c(C)n1-c1cc(Cl)ccc1Cl
[48] Cc1cc(/C=N/n2cnnc2)c(C)n1-c1ccc(Cl)cc1Cl
[49] Cc1ccc(Cn2c(C)c3cnn(CC(=O)NCCc4ccc(Cl)cc4)c(=O)c3c2C)cc1
[50] CCC(C)c1ccc(S(=O)(=O)N2CCN(CC(O)COCC3CCCO3)CC2)cc1 (stereo not given)
Compound | 41 | 42 | 43 | 44 | 45 | 46 | 47 | 48 | 49 | 50
miR-21 reporter | -3% | nt | -10% | -11% | nt | -4% | -5% | 11% | -1% | nt
Lamin A splicing | nt | nt | 21%[46 µM] | ? | nt | nt | ? | 8% | nt | nt
JMJD2E inh | nt | nt | nt | -6% | nt | nt | -2% | 5% | nt | nt
Sfp PPTase inh | -8% | nt | nt | -6% | nt | nt | -5% | -15% | nt | nt
ALDH1A1 block | nt | nt | nt | ? | nt | nt | 3.5µM* | ? | nt | nt
G9a inh | ? | 3%[2.33 µM] | 40%[59 µM] | 50µM* | -4%[2.33 µM] | -13%[59 µM] | ? | -39%[12.7 µM] | 2%[59 µM] | 10µM*

Profiles as entered above. Order of screens: miR-21 reporter	Lamin A splicing	JMJD2E inh	Sfp PPTase inh	ALDH1A1 block	G9a inh
`Cc1ccc(Cn2c(C)c3cnn(CC(=O)NCCc4ccc(Cl)cc4)c(=O)c3c2C)cc1` across the screens: -1%	nt	nt	nt	nt	2%[59 µM]
`Cc1cc(/C=N/n2cnnc2)c(C)n1-c1ccc(Cl)cc1Cl` across the screens: 11%	8%	5%	-15%	?	-39%[12.7 µM]
